Assay [1] has as its target human α-thrombin (human) (UniProt P00734). As to the kind of experiment: microplate thermal shift assay, Kd at Tm calculated with equation (1); hirudin peptide alone, 50 µM.
Assay [2] has the same target. Kind of assay: microplate thermal shift assay, Kd at 298 K estimated with equation (3), binding enthalpy assumed -10.0 kcal/mole; hirudin peptide alone.

Our source for the Kd values is patent publication US7122321B2, “High throughput method for functionally classifying proteins identified using a genomics approach” (Johnson & Johnson Pharmaceutical Research & Development, …, priority 1997, dated 2006).

By Kd is commonly meant a measure of binding affinity in units of concentration. Turning to “Hirugen (hirudin 53-64) (Sigma) (from UniProt P09945 60-71) (peptide)”, the figures for the Kd with human α-thrombin (human) [1] and in the assay with human α-thrombin (human) [2] were 0.185 µM and 0.023 µM, respectively.
